Experiment [1] deals with SK‐N‐BE(2)‐C cells. Kind of experiment: LysoTracker assay, flow cytometry. It is filed as cell-based. The following applies: 1 μM.
The target in experiment [2] is T1, HDAC10 (Homo sapiens, UniProt Q969S8).
T1 sequence (Q969S8 1-669): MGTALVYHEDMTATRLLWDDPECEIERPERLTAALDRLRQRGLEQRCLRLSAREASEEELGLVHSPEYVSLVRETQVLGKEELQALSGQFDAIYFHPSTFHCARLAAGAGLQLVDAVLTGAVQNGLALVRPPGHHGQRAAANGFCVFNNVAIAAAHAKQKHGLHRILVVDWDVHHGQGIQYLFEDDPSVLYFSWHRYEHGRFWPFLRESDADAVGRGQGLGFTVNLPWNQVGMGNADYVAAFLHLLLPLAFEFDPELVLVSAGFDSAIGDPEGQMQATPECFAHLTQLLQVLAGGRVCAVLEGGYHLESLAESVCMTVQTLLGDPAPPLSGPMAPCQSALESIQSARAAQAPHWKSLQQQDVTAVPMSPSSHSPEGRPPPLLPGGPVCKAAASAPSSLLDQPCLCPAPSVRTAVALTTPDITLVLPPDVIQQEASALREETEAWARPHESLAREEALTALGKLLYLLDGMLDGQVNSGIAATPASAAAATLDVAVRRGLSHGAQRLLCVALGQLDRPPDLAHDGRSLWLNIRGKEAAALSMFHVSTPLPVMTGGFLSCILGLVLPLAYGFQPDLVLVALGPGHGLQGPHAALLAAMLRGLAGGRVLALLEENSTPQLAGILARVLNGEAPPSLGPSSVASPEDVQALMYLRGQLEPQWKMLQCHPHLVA
The following applies: read-out: BRET assay (EC50); in‐cellulo; ref 32 (Géraldy et al.); cited from earlier work.

Take `O=C(CCCCCCC(=O)Nc1ccccc1)NO` [vorinostat]: the “LysoTracker effect (relative signal intensity as compared to control)” value in experiment [1] amounted to 2.0±0.03. Further, the EC50 in experiment [2] is 0.63 µM.

These data come from paper PMC9308754 (Chembiochem, 2022).
